Protein sequences, listed by entry. Tags and fused reporters are not part of them.
UniProt P21554, whole entry: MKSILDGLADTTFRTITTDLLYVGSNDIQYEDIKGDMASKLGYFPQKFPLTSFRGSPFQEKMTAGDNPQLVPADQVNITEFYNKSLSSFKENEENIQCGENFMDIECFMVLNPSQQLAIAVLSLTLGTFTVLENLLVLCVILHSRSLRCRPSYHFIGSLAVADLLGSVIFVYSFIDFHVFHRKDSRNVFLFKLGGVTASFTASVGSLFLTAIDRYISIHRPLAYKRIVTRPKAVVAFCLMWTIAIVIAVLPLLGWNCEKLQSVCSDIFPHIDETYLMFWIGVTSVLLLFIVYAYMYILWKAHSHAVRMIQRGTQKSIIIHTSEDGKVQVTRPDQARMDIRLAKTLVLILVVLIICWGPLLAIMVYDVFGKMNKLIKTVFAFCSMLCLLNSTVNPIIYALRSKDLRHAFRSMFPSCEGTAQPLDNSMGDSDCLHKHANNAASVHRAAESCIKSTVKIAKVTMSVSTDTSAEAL

In paper PMC4283194 (Neuroimage, 2014):

Legend:
Format in all cases: in vivo
[1] = biological target: T1, CB1 receptor (Homo sapiens, UniProt P21554); assay: [11C]MePPEP PET, modified standard uptake values (mSUV); parameters: assess the stability of CB1-receptor quantification in humans in vivo; from tissue; host or cells: living human brain (healthy volunteers), in vivo PET; conditions: for mSUV median: ~30–60 min after injection
Method: Modified standard uptake values (mSUVs; [Innis et al., 2007]) for frames 25–31, i.e. from 29 min 50 s to 58 min 50 s after injection, were also derived for the ROIs according to ([Goffin et al., 2011]):(4) activity×weightkg+70kg/2/injecteddose.

[2] = biological target: T1, CB1 receptor; assay: [11C]MePPEP PET, VT by reversible two-compartment model with variable blood volume (2kbv); parameters: assess the stability of CB1-receptor quantification in humans in vivo; from tissue; host or cells: living human brain (healthy volunteers), in vivo PET
Method: (§1) Continuous and intermittent blood samples were collected to allow the subsequent generation of metabolite-corrected arterial plasma time–activity curves (TACs) ([Hammers et al., 2008]). During the first 15 min blood was withdrawn continuously at a rate of 300 ml/h and radioactivity measured in a BGO detection system ([Jones et al., 1994]). To quantify plasma and whole blood radioactivity, as well as to allow quantification of the parent fraction of the radiotracer, intermittent discrete (10 ml) samples were taken with heparinised syringes before the scan (baseline) and at the following time points after scan start: 3, 5, 10, 15, 20, 30, and 50 min. At 75 min, a larger 17 ml sample was taken to allow quantification despite radioactivity decay. […] Continuous plasma input functions (IF) were derived by cross-calibration and combination of the continuous and discrete data, multiplication with the fitted plasma-over-blood ratio, and correction for parent radiotracer fraction, as described in detail in previous studies ([Hammers et al., 2007a], [Jones et al., 1994]).
In this model, three microparameters are derived: K1 is the influx of the ligand from the plasma to the tissue compartment containing free, non-specifically bound, and specifically bound ligand, k2 is the efflux constant from the ROI back to plasma ([Cunningham et al., 1991], [Huang et al., 1980]), and bv is a variable blood volume term. VT is then calculated according to the compartmental model equation ([Watabe et al., 2006]):(1) VT=K1/k2.

[3] = biological target: T1, CB1 receptor; assay: [11C]MePPEP PET, VT by rank shaping regularised spectral analysis (RS-SA); parameters: assess the stability of CB1-receptor quantification in humans in vivo; from tissue; host or cells: living human brain (healthy volunteers), in vivo PET; VT median: unit not given beside the values
Method: as §1
VT values were generated directly from dynamic data sampled using ROIs with rank shaping (RS; orthogonalized-functional-base) regularisation of SA ([Turkheimer et al., 2003]) using in-house “Clickfit” software. As previously described by [Turkheimer et al. (2003)], we used the metabolite-corrected IF, a logarithmically spaced basis, an exponential range of bases extending to − 3.2, and the regional tissue TAC. TACs were weighted according to ([Gunn et al., 1998]):(3) Wi=Li/Tiforframei=1,2,3…35 [wi — weight for frame i; Li — length of frame i (seconds); and Ti — rate of true coincidences (per second)].
The VT for each ROI was then obtained as the plateau of the VT(R), where R is the expected signal-to noise ratio that is used as the regularisation parameter (R) in rank-shaping (Fig. 2; ([Turkheimer et al., 2003])).

COc1cccc([C@H]2C[C@@H](N[C@H](C)c3ccccc3)C(=O)N2c2ccc(C(F)(F)F)cc2)c1 [[^11C]MePPEP, (3R,5R)-5-(3-methoxy-phenyl)-3-((R)-1-phenyl-ethylamino)-1-(4-trifluoro-methyl-phenyl)-pyrrolidin-2-one]
Median % diff (test–retest) of mSUV, mean (SD) across regions ([1]; 8 ROIs): 12 ± 10% and 12.0 (10.1) % and 12.0 ± 10.1%
ICC of mSUV ([1]; ACG): 0.86
Mean %BS-CV of mSUV ([1]; ACG): 27.2%
Median % diff (test–retest) of mSUV ([1]; ACG): 8.8%
ICC of mSUV ([1]; Accumbens): 0.80
Mean %BS-CV of mSUV ([1]; Accumbens): 27.9%
Median % diff (test–retest) of mSUV ([1]; Accumbens): 6.7%
ICC of mSUV ([1]; Caudate): 0.79
Mean %BS-CV of mSUV ([1]; Caudate): 30.1%
Median % diff (test–retest) of mSUV ([1]; Caudate): 7.6%
ICC of mSUV ([1]; Hippocampus): 0.84
Mean %BS-CV of mSUV ([1]; Hippocampus): 27.4%
Median % diff (test–retest) of mSUV ([1]; Hippocampus): 8.3%
mSUV median ([1]; Hippocampus): 2.7
ICC of mSUV ([1]; IFG): 0.86
Mean %BS-CV of mSUV ([1]; IFG): 27.3%
Median % diff (test–retest) of mSUV ([1]; IFG): 8.9%
ICC of mSUV ([1]; Pallidum): 0.84
Mean %BS-CV of mSUV ([1]; Pallidum): 27.1%
Median % diff (test–retest) of mSUV ([1]; Pallidum): 11.1%
mSUV median ([1]; Pallidum): 3.6
ICC of mSUV ([1]; Pons): 0.47
Mean %BS-CV of mSUV ([1]; Pons): 63% and 62.6%
Median % diff (test–retest) of mSUV ([1]; Pons): 37% and 36.7%
ICC of mSUV ([1]; Thalamus): 0.83
Mean %BS-CV of mSUV ([1]; Thalamus): 25.8%
Median % diff (test–retest) of mSUV ([1]; Thalamus): 8.1%
mSUV median ([1]; Thalamus): 2.7
Ratio pallidum/pons of mSUV ([1]; in vivo): 4.2
Ratio pallidum/pons of VT [2]: 3.6
Mean BS % CV of VT, mean (SD) across regions ([2]; 8 ROIs): 45% and 44.5 (7.9) % and 44.5 ± 7.9%
Median % diff (test–retest) of VT, mean (SD) across regions ([2]; 8 ROIs): 19.7 (8.7) % and 19.7 ± 8.7%
ICC of VT ([2]; ACG): 0.76
Mean BS % CV of VT ([2]; ACG): 47.4%
Median % diff (test–retest) of VT ([2]; ACG): 27.8%
ICC of VT ([2]; Accumbens): 0.69
Mean BS % CV of VT ([2]; Accumbens): 53.7%
Median % diff (test–retest) of VT ([2]; Accumbens): 35.8%
VT median ([2]; Accumbens): 8.4
ICC of VT ([2]; Caudate): 0.85
Mean BS % CV of VT ([2]; Caudate): 48.0%
Median % diff (test–retest) of VT ([2]; Caudate): 19.7%
VT median ([2]; Caudate): 7.4
ICC of VT ([2]; Hippocampus): 0.88
Mean BS % CV of VT ([2]; Hippocampus): 50.4%
Median % diff (test–retest) of VT ([2]; Hippocampus): 14.8%
ICC of VT ([2]; IFG): 0.83
Mean BS % CV of VT ([2]; IFG): 42.1%
Median % diff (test–retest) of VT ([2]; IFG): 18.1%
VT median ([2]; IFG): 8.8
ICC of VT ([2]; Pallidum): 0.70
Mean BS % CV of VT ([2]; Pallidum): 48.1%
Median % diff (test–retest) of VT ([2]; Pallidum): 20.6%
ICC of VT ([2]; Pons): 0.95
Mean BS % CV of VT ([2]; Pons): 30.2%
Median % diff (test–retest) of VT ([2]; Pons): 8.3%
ICC of VT ([2]; Thalamus): 0.89
Mean BS % CV of VT ([2]; Thalamus): 35.9%
Median % diff (test–retest) of VT ([2]; Thalamus): 12.6%
Ratio pallidum/pons of VT [3]: 2.4
Median % diff (test–retest) of VT, mean (SD) across regions ([3]; 8 ROIs): 15.0 (4.7) % and 15.0 ± 4.6%
ICC of VT ([3]; ACG): 0.86
Mean BS % CV of VT ([3]; ACG): 34.0%
Median % diff (test–retest) of VT ([3]; ACG): 14.6%
ICC of VT ([3]; Accumbens): 0.73
Mean BS % CV of VT ([3]; Accumbens): 36.5%
Median % diff (test–retest) of VT ([3]; Accumbens): 18.5%
VT median ([3]; Accumbens): 8.6
ICC of VT ([3]; Caudate): 0.82
Mean BS % CV of VT ([3]; Caudate): 42.2%
Median % diff (test–retest) of VT ([3]; Caudate): 11.6%
VT median ([3]; Caudate): 8.1
ICC of VT ([3]; Hippocampus): 0.81
Mean BS % CV of VT ([3]; Hippocampus): 35.9%
Median % diff (test–retest) of VT ([3]; Hippocampus): 14.4%
VT median ([3]; Hippocampus): 8.2
ICC of VT ([3]; IFG): 0.85
Mean BS % CV of VT ([3]; IFG): 34.8%
Median % diff (test–retest) of VT ([3]; IFG): 15.6%
ICC of VT ([3]; Pallidum): 0.77
Mean BS % CV of VT ([3]; Pallidum): 39.7%
Median % diff (test–retest) of VT ([3]; Pallidum): 23.3%
ICC of VT ([3]; Pons): 0.90
Mean BS % CV of VT ([3]; Pons): 32.3%
Median % diff (test–retest) of VT ([3]; Pons): 7.4%
ICC of VT ([3]; Thalamus): 0.85
Mean BS % CV of VT ([3]; Thalamus): 34.7%
Median % diff (test–retest) of VT ([3]; Thalamus): 14.9%

Values joined by “and” are separate entries in the source; they are usually repeats but may differ in a detail not shown here. Equal values may be shown once.
